This note sets out measurements from publication PMC5384254, “Discovery of new muscarinic acetylcholine receptor antagonists from Scopolia tangutica” (Scientific Reports, 2017).

The chains behind the UniProt entries cited, without tags or fusion partners.
UniProt P20309, whole entry: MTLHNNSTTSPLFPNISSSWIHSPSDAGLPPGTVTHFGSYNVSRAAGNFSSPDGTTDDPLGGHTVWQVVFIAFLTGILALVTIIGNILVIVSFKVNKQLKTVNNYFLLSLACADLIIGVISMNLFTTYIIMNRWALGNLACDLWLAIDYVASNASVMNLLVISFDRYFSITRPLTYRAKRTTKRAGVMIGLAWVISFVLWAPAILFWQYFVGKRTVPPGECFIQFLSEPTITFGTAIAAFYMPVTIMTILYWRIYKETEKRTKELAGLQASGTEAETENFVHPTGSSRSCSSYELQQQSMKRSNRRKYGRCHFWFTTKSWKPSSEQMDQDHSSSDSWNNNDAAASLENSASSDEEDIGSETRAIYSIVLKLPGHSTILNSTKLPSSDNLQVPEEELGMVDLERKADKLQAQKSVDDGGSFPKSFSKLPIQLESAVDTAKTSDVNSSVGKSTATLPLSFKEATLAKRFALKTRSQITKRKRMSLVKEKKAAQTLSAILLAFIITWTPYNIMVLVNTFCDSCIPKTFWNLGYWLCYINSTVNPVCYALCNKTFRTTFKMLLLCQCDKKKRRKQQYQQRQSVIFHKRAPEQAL

The assay concerns the target M3 receptor (Homo sapiens, UniProt P20309). Kind of assay: two-step DMR assay, pure compounds, on endogenous M3 receptor in HT-29 cells. The following applies: for IC50: read-out: IC50 value on M3, inhibition of DMR of 16 μM acetylcholine at 30 min post-stimulation after 1 h pretreatment, mean ± s.d., n = 4.

Molecules are shown by their SMILES.

For orientation: IC50 means the concentration that gives 50% inhibition.

With `CN1[C@@H]2CC[C@H]1C[C@@H](OC(=O)[C@@](O)(CO)c1ccccc1)C2`, the IC50 was 490 nM.

Regarding `O=C(O[C@H]1C[C@@H]2N[C@H](C1)[C@H]1O[C@H]12)[C@@](O)(CO)c1ccccc1`, the IC50 amounted to 1110 nM. Where the note is “3 vs 11 and 4 vs 7”, the “reduction of activity on M3 by removal of methyl at R3” value is below 5 fold. Further, the “decrease of potency on M3 relative to compound 1” value (structure-activity comparison centered with 1) is listed as “approximately 25 fold”.

Consider `CN1[C@H]2C[C@H](OC(=O)[C@@](O)(CO)c3ccccc3)C[C@@H]1[C@@H](O)C2`, for which the half-maximal inhibitory concentration (IC50) was 69900 nM. Moreover, where the note is “16 μM acetylcholine, second step”, the “efficacy and potency of inhibition of the acetylcholine DMR (in words)” value is on record as “does not fully inhibit the acetylcholine DMR at the highest dose”. Where the note is “inhibition of DMR of 16 μM acetylcholine at 30 min post-stimulation after 1 h pretreatment, mean ± s.d., n = 4”, the “IC50 value on M3” value is “weak”. In addition, the “antagonistic activity on M3 receptor (in words)” value (two-step DMR assay) was “nearly inactive”.
